MC4R barr agon: human MC4R agonism via beta-arrestin. P32245. U2OS MC4R beta-arrestin complementation, luminescence; percent of melanotan II response, DMSO zero. activation, % at 8.9 µM. 0.98% of 360,000 active;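 active = activation above a per-plate cutoff, the mean activation of sample wells on that plate plus 3 SD, cut at about 8% in these data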
ARFGAP1 inhibitor: rat ARFGAP1 inhibition; Q62848; Arfgap1-stimulated ARF1 GTP hydrolysis, GDP FP detection; inhibition, % at 16.5 µM; 0.26% of 360,000 active; AID 651572;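 active = inhibition above a per-plate limit, mean inhibition of low control wells plus 3 SD, cut at about 25% in these data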;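 also: 0% = DMSO wells with enzyme and 100% = wells lacking Arfgap1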
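Assay system: Rat Arfgap1 GAP domain (His6, aa 1-136), purified enzyme | Buffer or medium: HEPES 25 mM pH 7.5, NaCl 150 mM, MgCl2, DTT | Schedule: GTP hydrolysis reaction 2 h at 25 °C | Signal: FP of antibody-bound GDP Alexa 633 tracer, ex 620/em 688 nm | Measure: Percent inhibition of Arfgap1-stimulated GTP hydrolysis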
MC4R antag cAMP: blocks human MC4R cAMP signaling. AID 540295. MC4R-expressing cells, MTII-stimulated cAMP, LANCE TR-FRET. inhibition, % at 6.5 µM. 0.48% of 360,000 active;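 active = inhibition above its plate's cutoff, the mean of tested wells on that plate plus 3 SD, cut at about 29% in these data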;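 also: 0% = Melanotan II alone and 100% = Melanotan II plus saturating MCL0020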
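System: U2OS cells stably expressing human melanocortin 4 receptor (MC4R). Reagent: Melanotan II challenge after compound preincubation. Doses: 6.5 µM. Times: 30-min compound, 1-h challenge, 1-h detection, room temperature. Measured by: TR-FRET with Eu-cAMP and labeled anti-cAMP, 671 nm. Replicates: singlicate.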
NRP1-CendR mod: NRP-1/CendR interaction modulation; inhibition, % at 25 µM; O14786; FAM-RPARPAR peptide binding to NRP-1, fluorescence polarization; 0.85% of 360,000 active;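 active = inhibition or corrected inhibition above about 18%, plus a signal ratio from 0.5 to 1.5, limit read from the data, passing the limit was not always enough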
Yeast UUG start: modulators of start codon recognition fidelity in yeast; S. cerevisiae UUG-firefly luciferase reporter, luminescence/redox ratio; activity score, % at 18.7 µM; 0.13% of 350,000 active;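 active = replicate mean at a twofold rise or more, about +100% in these data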;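 also: firefly luciferase made from a UUG start codon reports start codon fidelity; reporter light over untreated wells divided by growth signal over untreated wells; some hits fall short of that in this replicate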
ASAP1 GAP inh: inhibitors of human ASAP1 ArfGAP activity; inhibition, % at 16.5 µM; ASAP1-stimulated ARF1 GTP hydrolysis, GDP FP detection; 0.19% of 360,000 active; AID 624377; in the data active = inhibition above about 25%;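 also: 0% = vehicle with enzyme and substrate and 100% = no enzyme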
Numbers without * were called inactive. This is a sample that favours compounds with a hit; in the whole collection about 2.3% have one here.

For COc1ccc(NC(=O)Nc2cccc3c2O[C@@H](CN(C)Cc2ccncc2)[C@H](C)CN([C@@H](C)CO)C3=O)cc1 the results were Yeast UUG start -10.
Screening Cn1c(-c2ccccc2)c(C(=O)CCl)c2ccccc21 returned MC4R barr agon 12*, ARFGAP1 inhibitor -9, MC4R antag cAMP 3, NRP1-CendR mod -12 and ASAP1 GAP inh 12.
Screening Cc1cc(=O)n2nc(N3CCCC(C(=O)N4CCOCC4)C3)sc2n1 (centres undefined) returned MC4R barr agon 4, ARFGAP1 inhibitor 2, MC4R antag cAMP -3, NRP1-CendR mod 44*, Yeast UUG start -4 and ASAP1 GAP inh -5.
COc1ccc(C2=NOC(C(=O)NCc3ccco3)C2)cc1 (centres undefined) was read as MC4R barr agon -2, ARFGAP1 inhibitor -3, MC4R antag cAMP -13, NRP1-CendR mod 2, Yeast UUG start -7 and ASAP1 GAP inh 5.
For O=C(NCc1ccco1)C1CC(c2ccc(C(F)(F)F)cc2)=NO1 (centres undefined) the results were MC4R barr agon -2, ARFGAP1 inhibitor 3, MC4R antag cAMP -14, NRP1-CendR mod 31*, Yeast UUG start -24 and ASAP1 GAP inh -3.
CCOC(=O)N1CCN(C(=O)c2cnn3c(C(F)F)cc(-c4ccc(C)cc4)nc23)CC1 was read as MC4R barr agon 0, ARFGAP1 inhibitor -4, MC4R antag cAMP 2, NRP1-CendR mod 20*, Yeast UUG start 14 and ASAP1 GAP inh -8.
For C[C@H](CO)N1C[C@H](C)[C@H](CN(C)C(=O)Nc2ccccc2)Oc2ccc(NS(C)(=O)=O)cc2CC1=O the results were Yeast UUG start -5.
C[C@H]1CN([C@@H](C)CO)C(=O)CCCn2cc(nn2)CO[C@@H]1CN(C)C(=O)Nc1ccc(N2CCN(C)CC2)cc1 was read as MC4R barr agon -1, ARFGAP1 inhibitor -9, MC4R antag cAMP 16, NRP1-CendR mod 21*, Yeast UUG start 4 and ASAP1 GAP inh 4.
Screening CC1CCC2(CC1)OCC1(CCC3(COC4(CCC(C)CC4)OC3)C1=O)CO2 (centres undefined) returned MC4R barr agon 9.2*, ARFGAP1 inhibitor -9, MC4R antag cAMP 1, NRP1-CendR mod 4 and ASAP1 GAP inh -2.
Screening Cc1ccc(S(=O)(=O)N/N=C/c2ccc(OC3CSC3)cc2)cc1 returned MC4R barr agon 9.5*, ARFGAP1 inhibitor -12, MC4R antag cAMP -3, NRP1-CendR mod 12, Yeast UUG start -9 and ASAP1 GAP inh -2.
`COc1ccc(S(=O)(=O)Nc2ccc3c(c2)CC(=O)N([C@H](C)CO)C[C@@H](C)[C@@H](CN(C)C(=O)Nc2ccc(F)cc2)O3)cc1` gave Yeast UUG start -4.
For CCOc1ccc(N(CC(=O)NCc2ccc(F)cc2)C(=O)c2snc(C(N)=O)c2N)cc1 the results were MC4R barr agon 13*, ARFGAP1 inhibitor 9, MC4R antag cAMP 10, NRP1-CendR mod 2, Yeast UUG start -17 and ASAP1 GAP inh -1.
Screening COc1ccc(CNC(=O)CN(C(=O)c2snc(C(N)=O)c2N)c2ccc(F)cc2)cc1 returned MC4R barr agon -3, ARFGAP1 inhibitor 4, MC4R antag cAMP 0, NRP1-CendR mod 11, Yeast UUG start 17 and ASAP1 GAP inh 7.
Screening C[C@H](CO)N1C[C@H](C)[C@@H](CN(C)S(=O)(=O)c2cn(C)cn2)Oc2ncc(C#CCN(C)C)cc2C1=O returned Yeast UUG start 4.
`CO[C@@H]1CN(C)C(=O)c2ccc(NC(=O)Cc3ccccc3)cc2OC[C@@H](C)N(CCc2ccccc2)C[C@H]1C` gave Yeast UUG start 3.

In the list so far, these contain a furan ring, fused or not:
COc1ccc(C2=NOC(C(=O)NCc3ccco3)C2)cc1 (centres undefined) was read as MC4R barr agon -2, ARFGAP1 inhibitor -3, MC4R antag cAMP -13, NRP1-CendR mod 2, Yeast UUG start -7 and ASAP1 GAP inh 5.
For O=C(NCc1ccco1)C1CC(c2ccc(C(F)(F)F)cc2)=NO1 (centres undefined) the results were MC4R barr agon -2, ARFGAP1 inhibitor 3, MC4R antag cAMP -14, NRP1-CendR mod 31*, Yeast UUG start -24 and ASAP1 GAP inh -3.

Next structures:
For COc1ccc(C2CC(=O)C(C=NCCO)=C(O)C2)cc1 (centres undefined) the results were MC4R barr agon 2, ARFGAP1 inhibitor 10, MC4R antag cAMP 0, NRP1-CendR mod -5, Yeast UUG start -7 and ASAP1 GAP inh -1.
`O=C1CC(c2ccc(Cl)cc2)CC(O)=C1C=NCCO` (centres undefined) gave MC4R barr agon -1, ARFGAP1 inhibitor 5, MC4R antag cAMP 0, NRP1-CendR mod 16*, Yeast UUG start -5 and ASAP1 GAP inh -11.
Screening CN(C)C(=O)[C@]1(Cc2ccccc2CN=[N+]=[N-])N=C(c2ccc(OCCCO)cc2)O[C@@H]1c1ccccc1 returned Yeast UUG start -7.
`Cc1ccc(C(=O)COC(=O)c2ccc3c(c2)C(=O)N(c2cccc4ncccc24)C3=O)cc1` gave MC4R barr agon -1, ARFGAP1 inhibitor -9, MC4R antag cAMP -1, NRP1-CendR mod -9 and ASAP1 GAP inh -3.
O=C(OCC(=O)c1ccc(Cl)cc1Cl)c1ccc2c(c1)C(=O)N(c1cccc3ncccc13)C2=O was read as MC4R barr agon -2, ARFGAP1 inhibitor -3, MC4R antag cAMP -4, NRP1-CendR mod 10, Yeast UUG start -26 and ASAP1 GAP inh 114*.
C[C@H]1CN([C@@H](C)CO)C(=O)Cc2cc(NC(=O)C3CCCCC3)ccc2O[C@@H]1CN(C)S(=O)(=O)c1cn(C)cn1 was read as Yeast UUG start -16.
For O=C(COC(=O)c1cc(C(F)(F)F)cc(C(F)(F)F)c1)NCc1ccc(Cl)cc1 the results were MC4R barr agon 8.7*, ARFGAP1 inhibitor -6, MC4R antag cAMP -1, NRP1-CendR mod 6, Yeast UUG start 1 and ASAP1 GAP inh -13.
Screening O=C(C[C@@H]1CC[C@H](NC(=O)Nc2cc(F)ccc2F)[C@@H](CO)O1)NCc1ccccn1 returned Yeast UUG start -13.
For C/C=C/c1ccc([C@H]2[C@@H](CO)N(C(=O)COC)[C@@H]2CNC(=O)CC)cc1 the results were Yeast UUG start 1.
CN1CCCC(OC(=O)c2cc(Cl)cc(Cl)c2)C1 (centres undefined) was read as MC4R barr agon -2, ARFGAP1 inhibitor 9, MC4R antag cAMP -5, NRP1-CendR mod -9 and ASAP1 GAP inh 5.
CN1CCCC(OC(=O)c2cccc(Cl)c2)C1 (centres undefined) was read as MC4R barr agon -1, ARFGAP1 inhibitor -4, MC4R antag cAMP 2, NRP1-CendR mod 30* and ASAP1 GAP inh -4.
`Cn1c(=O)c2[nH]c(SCCN3CCCCC3)nc2n(C)c1=S` gave MC4R barr agon -4, ARFGAP1 inhibitor 6, MC4R antag cAMP 1, NRP1-CendR mod 20*, Yeast UUG start -15 and ASAP1 GAP inh 11.
Screening CC(Nc1nc(-c2ccc(F)cc2)cs1)c1nc2cc(C(F)(F)F)ccc2n1CCOCCO (centres undefined) returned MC4R barr agon -3, ARFGAP1 inhibitor 5, MC4R antag cAMP 3, NRP1-CendR mod 28*, Yeast UUG start -20 and ASAP1 GAP inh -4.

As a working copy, part of the list above:
CN1CCCC(OC(=O)c2cccc(Cl)c2)C1 (centres undefined) was read as MC4R barr agon -1, ARFGAP1 inhibitor -4, MC4R antag cAMP 2, NRP1-CendR mod 30* and ASAP1 GAP inh -4.
`Cn1c(=O)c2[nH]c(SCCN3CCCCC3)nc2n(C)c1=S` gave MC4R barr agon -4, ARFGAP1 inhibitor 6, MC4R antag cAMP 1, NRP1-CendR mod 20*, Yeast UUG start -15 and ASAP1 GAP inh 11.

Assay outcomes from PubChem BioAssay.
